In ChEMBL document CHEMBL5634116, “Strategies for developing retinoic acid receptor alpha-selective antagonists as novel agents for male contraception” (Eur J Med Chem, 2023):

Experiment: Plasma protein binding in CD-1 mouse assessed as recovery fraction at 10^-5 M
Format: ADME, cell-free
Settings: 10 µM, dose 1 10^-5M

With `Cc1ccc(C2=CC(C)(C)Oc3ccc(C(=O)Nc4ccc(C(=O)O)cc4)cc32)cc1` as the compound, how does the Drug recovery read?
The Drug recovery was 100%.
